Values of other authors as cited in patent US20060025476A1, “Use of methyl pyruvate for the purpose of reducing weight gain in mammals” (priority 2004, published 2006).

Tested on: fetal rat brown adipocyte primary cultures

O=[N+]([O-])c1ccc(-c2nc(-c3ccncc3)c(-c3ccc(F)cc3)[nH]2)cc1 [PD169316]
ability of Rosi and retinoids for UCP-1 induction: impairs
